# Assay: Solubility of deferasirox in water from composition with sodium carbonate, dissolved with magnetic stirrer
# Assay type: physicochemical
# Conditions: composition with 500 mg deferasirox and 80 mg sodium carbonate; magnetic stirrer for 3 minutes
# Description: Table 1 below, without being limited to the compounds and their amounts mentioned, illustrates the pH values and solubility data of a pharmaceutical composition comprising 500 mg of deferasirox combined with various amounts of sodium carbonate in a suitable carrier when the said composition was dissolved using a magnetic stirrer for 3 minutes.
substance,measurement,value
"4-[3,5-bis(2-hydroxyphenyl)-[1,2,4]triazol-1-yl]benzoic acid [deferasirox]",Solubility of deferasirox in water,0.65 mg/mL

# Reference: EP2987482A1, “Soluble and dispersible pharamaceutical deferasirox formulation” (Santa Farma Ilaç Sanayi A.S., priority 2014, dated 2016)
